# According to patent publication US8906911B2, “Chemokine receptor antagonists” (AbbVie Inc., priority 2012, dated 2014):
# The chains behind the UniProt entries cited, without tags or fusion partners. Where a name states a change or a piece, a line headed by the entry shows the natural chain unless it says otherwise. A line that says so, or that is headed by a name, gives the form on record, which may keep a tag or linker.
# UniProt P41597, other isoform, or with tags, fused parts or gaps: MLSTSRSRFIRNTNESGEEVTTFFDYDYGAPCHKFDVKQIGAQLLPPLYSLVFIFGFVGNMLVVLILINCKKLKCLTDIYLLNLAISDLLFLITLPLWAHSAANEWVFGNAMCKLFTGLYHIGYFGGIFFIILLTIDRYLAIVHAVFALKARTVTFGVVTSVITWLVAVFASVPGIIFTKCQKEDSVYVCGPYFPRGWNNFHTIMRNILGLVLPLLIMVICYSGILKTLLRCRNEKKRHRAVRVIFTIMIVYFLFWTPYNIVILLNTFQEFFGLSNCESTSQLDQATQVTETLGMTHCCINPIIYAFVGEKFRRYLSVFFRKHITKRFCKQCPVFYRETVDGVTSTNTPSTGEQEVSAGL
# UniProt O55193: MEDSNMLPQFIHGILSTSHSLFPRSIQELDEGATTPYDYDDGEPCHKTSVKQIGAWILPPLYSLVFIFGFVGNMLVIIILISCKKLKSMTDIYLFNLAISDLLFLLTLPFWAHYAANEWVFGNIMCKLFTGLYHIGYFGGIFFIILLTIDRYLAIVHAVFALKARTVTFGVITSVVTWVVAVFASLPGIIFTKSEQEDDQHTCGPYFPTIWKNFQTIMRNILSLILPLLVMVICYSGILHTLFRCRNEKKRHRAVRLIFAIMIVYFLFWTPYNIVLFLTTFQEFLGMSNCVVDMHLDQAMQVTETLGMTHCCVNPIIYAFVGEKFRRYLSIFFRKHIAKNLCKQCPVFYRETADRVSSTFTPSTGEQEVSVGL
# Legend:
# human CCR2B [1] = molecular target: T1, human CCR2B (Homo sapiens (Human), UniProt P41597); assay: Inhibition of [125I]-labeled MCP-1 binding to hCCR2B (radioligand binding in CHO cells); conditions: mean Ki; [125I]-MCP-1 50 pM; CHO cells expressing human CCR2B and Gα16
# From the text: (§1) CHO cells expressing human CCR2B were generated as follows. cDNA for human CCR2B (cloned from human blood) was cloned into plasmid pcDNA3.1 (from Invitrogen). The resulting plasmids were separately transfected into CHO cells expressing human Gα16 (from Molecular Devices). […] CHO cells expressing rat CCR2 were generated as follows. cDNA for rat CCR2 (cloned from rat macrophage) was cloned into plasmid pEF-flag (from Chinese Academy of Science). The resulting plasmids were transfected into CHO cells expressing human Gα16 (from […]).
# Inhibition of [^125I]-Labeled MCP-1 Binding to hCCR2B
# Radioligand binding assays were performed in CHO cells expressing human CCR2B and Gα16 coupling protein. […]
# Compounds were serially diluted in DMSO before diluting into assay buffer (25 mM HEPES, pH 7.4, 5 mM MgCl2, 1 mM CaCl2, 0.5% BSA) with cryo preserved CHO cells expressing human CCR2B and the Gα16 coupling protein (30×10^3/well) and [^125I]-MCP-1 (50 pM). […] Membrane was counted on Microbeta counter where background binding was determined by the presence of 100 nM MCP-1 and control total binding was determined by addition of DMSO in place of the test compound. The radioactivity values (cpm) were used to calculate the percent inhibition at a given compound concentration and the data fit to a sigmoidal curve in a semi-log plot to determine IC50 values. The corresponding Ki value is calculated as follows: […]
# human CCR2B [2] = molecular target: T1, human CCR2B; assay: Inhibition of native agonist (human MCP-1)-induced intracellular calcium release, calcium flux assay in CHO cells expressing human CCR2B and Gα16; assay type: cell-based; conditions: for IC50: read-out: hCCR2B IC50
# From the text: as §1
# Inhibition of Native Agonist-Induced Intracellular Calcium Release in Cells Expressing hCCR2B or rCCR2
# Calcium flux assays were performed in CHO cells expressing human CCR2B and Gα16 coupling protein, or rat CCR2 and Gα16 coupling protein. All compounds were dissolved in DMSO and assays run at a final DMSO concentration of 0.25% (v/v). Human MCP-1 was purchased from PeproTech and used at a final assay concentration of 2 nM, while rat MCP-1 was purchased from R&D and used at a final assay concentration of 4 nM. Assays with cells expressing human CCR2B were performed with human MCP-1, while assays with cells expressing rat CCR2 were performed with rat MCP-1.
# Briefly, cells were cultured overnight in a microtiter plate at 8000 per well. The next day, the resultant adherent cells were incubated in assay buffer (20 mM HEPES, pH 7.4, 0.1% bovine serum albumin, and 2.5 mM probenocid in Hank's Buffered Saline Solution) containing Calcium 4 dye (Molecular Probes) at 37° C. for 60 minutes. Calcium flux assays were performed on a FLIPR^Tetra instrument (Molecular Devices) by adding compound to the cells followed by addition of native agonist and measuring the change in fluorescence as a function of time. Maximal and minimal values for fluorescence were determined using native agonist (2 nM MCP-1) for human or rat CCR2, or buffer addition, respectively. Fluorescence values were used to calculate the percent inhibition at a given compound concentration and the data fit to a sigmoidal curve in a semi-log plot to determine IC50 values. The Kb value is calculated as Kb=IC50/(1+[agonist]/EC50), where [agonist] is the concentration of agonist used and EC50 is the agonist potency determined in the previous experiments. Mean Kb values and IC50 of the compounds assayed are reported in Table 2 and Table 3 respectively.
# rat CCR2 = rat CCR2 (Rattus norvegicus (Rat), UniProt O55193); assay: Inhibition of native agonist (rat MCP-1)-induced intracellular calcium release, calcium flux assay in CHO cells expressing rat CCR2 and Gα16; assay type: cell-based
# From the text: as §1
# Inhibition of Native Agonist-Induced Intracellular Calcium Release in Cells Expressing hCCR2B or rCCR2 […]
# Briefly, cells were cultured overnight in a microtiter plate at 8000 per well. […] Calcium flux assays were performed on a FLIPR^Tetra instrument (Molecular Devices) by adding compound to the cells followed by addition of native agonist and measuring the change in fluorescence as a function of time. Maximal and minimal values for fluorescence were determined using native agonist (2 nM MCP-1) for human or rat CCR2, or buffer addition, respectively. Fluorescence values were used to calculate the percent inhibition at a given compound concentration and the data fit to a sigmoidal curve in a semi-log plot to determine IC50 values. […]
SMILES,Ki (human CCR2B [1]) [nM],Kb (human CCR2B [2]) [nM],IC50 (human CCR2B [2]) [nM],Kb (rat CCR2) [nM]
CO[C@@H]1COCC[C@@H]1N[C@@H]1C[C@H]2CCC[C@@]2(C(=O)N2C[C@@H]3C[C@H]2CN3c2cc(C(F)(F)F)ncn2)C1 [Example 13],593,129,525,24
"CO[C@@H]1COCC[C@@H]1N[C@@H]1C[C@H]2CCC[C@@]2(C(=O)N2C[C@@H]3C[C@H]2CN3c2nccc(C(F)(F)F)n2)C1 [Example 12, 1,5-anhydro-2,3-dideoxy-4-O-methyl-3-{[(2R,3aR,6aR)-3a-({(1S,4S)-5-[4-(trifluoromethyl)pyrimidin-2-yl]-2,5-diazabicyclo[2.2.1]hept-2-yl}carbonyl)octahydropentalen-2-yl]amino}-D-erythro-pentitol]",261,48,194,11
"CO[C@@H]1COCC[C@@H]1N[C@@H]1C[C@H]2CCC[C@@]2(C(=O)N2C[C@@H]3C[C@H]2CN3c2cc(C(F)(F)F)cc(C)n2)C1 [Example 11, 1,5-anhydro-2,3-dideoxy-4-O-methyl-3-{[(2R,3aR,6aR)-3a-({(1S,4S)-5-[6-methyl-4-(trifluoromethyl)pyridin-2-yl]-2,5-diazabicyclo[2.2.1]hept-2-yl}carbonyl)octahydropentalen-2-yl]amino}-D-erythro-pentitol]",,359,1470,
